Results from PubChem BioAssay (NCI).
Several values for one entry are separate records, joined by “and”; a condition that tells them apart may be missing. Identical values can stand only once.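 Grown in 96-well plates, cells were treated for 48 hours with each compound at five concentrations. Insufficient inhibition: endpoint recorded as highest concentration tested. GI50 is the concentration that inhibits growth by half. TGI is the concentration that stops growth completely.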

Experiments:
Experiment in all cases: NCI tumour cell line growth inhibition, 48 h
M19-MEL melanoma = system: M19-MEL melanoma
MALME-3M melanoma = system: MALME-3M melanoma
SK-MEL-5 melanoma = system: SK-MEL-5 melanoma
UACC-62 melanoma = system: UACC-62 melanoma
NCI-H460 lung = system: NCI-H460 lung
NCI/ADR-RES ovarian = system: NCI/ADR-RES ovarian
KM20L2 colon = system: KM20L2 colon
SN12K1 renal = system: SN12K1 renal
CCRF-CEM leukemia = system: CCRF-CEM leukemia
SR leukemia = system: SR leukemia
P388 leukemia = system: P388 leukemia
SW-620 colon = system: SW-620 colon
BT-549 breast = system: BT-549 breast
OVCAR-3 ovarian = system: OVCAR-3 ovarian
RXF 393 renal = system: RXF 393 renal
DMS 273 small cell lung = system: DMS 273 small cell lung
MDA-MB-435 = system: MDA-MB-435
SNB-78 CNS = system: SNB-78 CNS
KM12 colon = system: KM12 colon
HS 578T breast = system: HS 578T breast
LXFL 529 NSCLC = system: LXFL 529 NSCLC
DMS 114 small cell lung = system: DMS 114 small cell lung
MCF7 breast = system: MCF7 breast
DLD-1 colon = system: DLD-1 colon
MDA-N = system: MDA-N
SNB-75 CNS = system: SNB-75 CNS
NCI-H522 lung = system: NCI-H522 lung
LOX IMVI melanoma = system: LOX IMVI melanoma
P388/ADR leukemia = system: P388/ADR leukemia

## CC1=CC2OC3CC4OC(=O)/C=C/C=C/C(C(C)O)OCC(O)C(C)CC(=O)OCC2(CC1O)C4(C)C31CO1 (stereo not given)
M19-MEL melanoma
  GI50: 0.00321 µM
  TGI: 0.0047 µM and 0.02 µM
MALME-3M melanoma
  TGI: 0.0041 µM
SK-MEL-5 melanoma
  TGI: 0.00419 µM
UACC-62 melanoma
  TGI: 0.00783 µM and 0.0244 µM
NCI-H460 lung
  TGI: 0.00664 µM and 0.0138 µM and 0.0262 µM
NCI/ADR-RES ovarian
  GI50: 1.39 µM and 0.518 µM
  TGI: 4.87 µM and 3.8 µM
KM20L2 colon
  GI50: 0.00462 µM and 0.0194 µM
  TGI: 0.0174 µM and 0.0386 µM
SN12K1 renal
  TGI: 0.0209 µM
CCRF-CEM leukemia
  GI50: 0.00182 µM
SR leukemia
  GI50: 0.00248 µM
P388 leukemia
  TGI: 0.175 µM
SW-620 colon
  TGI: 0.17 µM and 0.0568 µM and 0.248 µM
BT-549 breast
  TGI: 0.022 µM
OVCAR-3 ovarian
  TGI: 0.00967 µM and 0.0221 µM and 0.022 µM
RXF 393 renal
  TGI: 0.0102 µM and 0.0246 µM
DMS 273 small cell lung
  GI50: 0.0139 µM
  TGI: 0.0338 µM and 0.0179 µM
MDA-MB-435
  GI50: 0.00266 µM
  TGI: 0.0105 µM and 0.0164 µM
SNB-78 CNS
  GI50: 0.00487 µM and 0.0202 µM
  TGI: 0.0125 µM and 0.0403 µM
KM12 colon
  TGI: 0.0156 µM and 0.0658 µM and 0.043 µM
HS 578T breast
  TGI: 0.00323 µM
LXFL 529 NSCLC
  GI50: 0.00174 µM
  TGI: 0.00338 µM
DMS 114 small cell lung
  GI50: 0.00166 µM
  TGI: 0.0027 µM
MCF7 breast
  TGI: 0.756 µM
DLD-1 colon
  GI50: 0.00411 µM and 0.0184 µM
  TGI: 0.0138 µM and 0.0529 µM
MDA-N
  GI50: 0.00217 µM
  TGI: 0.00549 µM and 0.0179 µM
SNB-75 CNS
  TGI: 0.0158 µM and 0.0162 µM and 0.0213 µM
NCI-H522 lung
  TGI: 0.00228 µM
LOX IMVI melanoma
  TGI: 0.00408 µM
P388/ADR leukemia
  GI50: 0.0591 µM
  TGI: 0.295 µM
